Values of other authors as cited in article PMC4837544, “Differential kinetic profiles and metabolism of primaquine enantiomers by human hepatocytes” (Malaria Journal, 2016).

Tested on: recombinant human CYP2D6
Parameters: method as in PMID 25518709
Details: CYP2D6-catalyzed metabolism ref 12; cited from earlier work

For Primaquine-5,6-orthoquinone, the “abundance from (+)-PQ metabolism compared to (−)-PQ” value is listed as “twice as abundant”.
